In PMC10787407, “Regulation of polysaccharide in Wu‐tou decoction on intestinal microflora and pharmacokinetics of small molecular compounds in AIA rats” (Chinese Medicine, 2024):

Experiment: PK study of SM components in plasma of AIA rats by UPLC-MS/MS (MG vs MPS group)
Conditions: for AUC 0-t / AUC 0-∞ / C max / T max / t 1/2: then oral SM 39.2 g crude drug/kg, plasma, mean ± SEM; for Absorption under the intervention of PS: MPS vs MG group
[1] = MG group: AIA rats, saline 21 days
[2] = MPS group compared with the MG group, AIA rats
[3] = MPS group: AIA rats, oral PS 9.8 g crude drug/kg/day 21 days

Substance	AUC 0-t [1] [ng·h/mL]	AUC 0-∞ [1] [ng·h/mL]	C max [1] [ng/mL]	T max [1] [h]	t 1/2 [1] [h]	Change of AUC 0-t after oral PS [2]	Change of AUC 0-∞ after oral PS [2]	AUC 0-t [3] [ng·h/mL]	AUC 0-∞ [3] [ng·h/mL]	C max [3] [ng/mL]	T max [3] [h]	t 1/2 [3] [h]	Absorption under the intervention of PS (AIA rats)	Change of C max after oral PS [2]
Liquiritin apioside	941.302 ± 42.085	1053.558 ± 63.193	571.677 ± 49.414	0.250 ± 0.001	4.060 ± 0.589	increased	increased	1580.263 ± 242.037	1669.308 ± 244.694	850.691 ± 179.709	0.083 ± 0.001	2.969 ± 0.328	increased	
Methylephedrine	27.900 ± 4.829	30.265 ± 3.815	14.012 ± 2.615	0.083 ± 0.001	4.131 ± 1.363	decreased significantly	decreased significantly	16.109 ± 2.770	18.607 ± 4.409	12.523 ± 3.287	0.083 ± 0.001	4.331 ± 0.765	decreased	
Oxypaeoniflorin	61.034 ± 2.601	67.007 ± 3.218	28.569 ± 0.784	0.437 ± 0.110	3.408 ± 0.586	significantly higher	significantly higher	70.355 ± 1.558	75.327 ± 2.198	31.514 ± 0.848	0.458 ± 0.093	3.399 ± 0.306	increased	significantly higher
